{"source": "patent US11638712B2", "about": "“Bis(acetamidophenyl) guanidinophenylethylphosphonates for use in the prevention and/or treatment of PAR-related diseases” (Universiteit Antwerpen, priority 2016, dated 2023)", "key": {"uPA": {"biological_target": "uPA (Homo sapiens, UniProt P00749)", "assay": "in vitro serine protease inhibition profile: uPA", "assay_type": "biochemical"}, "post-colitis rats": {"tested_on": "post-colitis rats", "assay": "post-colitis rat model for visceral pain, visceromotor response (VMR) to colorectal distension", "details": "not tested; stated from correlation with matriptase, tryptase, cathepsin G IC50", "procedure": "Male Sprague-Dawley rats (200-225 g; Charles River, Italy) were used in all experiments. Rats were housed at a constant room temperature (22±2° C.) and humidity (60%). The animals had unlimited access to water and food and were kept on a 12 h:12 h day-night cycle. They were allowed to acclimatize for at least 1 week before the start of the experiments.\nIn this set-up, a mild colitis was induced in the post-colitis group on day 0, using a TNBS-enema. The control group received an intrarectal administration with 0.9% NaCl. The presence of colitis was verified by a colonoscopy on day 3. From day 10 onwards, a colonoscopy was performed every 4 days to follow-up the healing of the colonic mucosa. […]\nElectromyographic (EMG) electrodes were implanted into the external abdominal muscle and 3 days later, the VMR experiment was performed in conscious rats. […] The VMR was quantified using the area under the curve (AUC) of the EMG signal during the distension (20 s) corrected for the EMG signal before the distension (20 s).\n22.0. The results of the VMR experiments analyzed using a Generalized Estimating Equations (GEE) test with Least Significant Difference (LSD) post-hoc test. […]\nVisceral sensitivity was assessed using the visceromotor responses (VMRs) to a colorectal distension, shown in the graphs below as area under the curve (AUC; y-axis; μV.20 s-1) for each distension pressure (x-axis; mmHg). […]"}}, "note": "pIC50: −log10 of the molar value.", "data": [{"smiles": "COC(=O)NC(Cc1ccc(NC(=N)N)cc1)P(=O)(Oc1ccc(NC(C)=O)cc1)Oc1ccc(NC(C)=O)cc1", "note": "(centres unmarked) [Compound 2]", "values": [{"measurement": "pIC50", "setting": "uPA", "value": 8.52}, {"measurement": "therapeutic effect in visceral pain, expected from IC50 correlation", "setting": "post-colitis rats", "value": "will probably also show the same therapeutic effect"}]}]}
